Assay results taken from patent publication US9382276B2, “Water-soluble O-carbonyl phosphoramidate prodrugs for therapeutic administration” (MicuRx Pharmaceuticals, Inc., priority 2014, dated 2016).

Legend:
[1] = aqueous solubility testing, HPLC quantitation with UV detection at 326 nm
[2] = aqueous stability testing, HPLC UV detection at different time points; details: for degradation and precipitation in aqueous solution: pH range of about 4-5 over at least 4-6 h
[3] = rat pharmacokinetic (PK) model, conversion of prodrug into MRX-I in blood; details: after intravenous administration of Example 1
[4] = D5W solution at pH 5 over 24 h at r.t., sodium salt form

SMILES	aqueous solubility [1]	degradation and precipitation in aqueous solution [2]	solubility ([1]; D5W at pH 5, sodium salt, no additives or excipients)	intermittent formation of Intermediate 3 in blood (LC-MS) [3]	degradation in solution [2, 4]	precipitation from solution [2, 4]
CCOC(=O)CCC(=O)OP(=O)(O)N(C[C@H]1CN(c2cc(F)c(N3C=CC(=O)CC3)c(F)c2F)C(=O)O1)c1ccon1	at least 20 mg/mL	no significant degradation and precipitation				
CC(=O)OP(=O)(O)N(C[C@H]1CN(c2cc(F)c(N3C=CC(=O)CC3)c(F)c2F)C(=O)O1)c1ccon1		no significant degradation and precipitation	about 400 mg/mL	detected	only minimal degradation	without apparent precipitation
